Test results as given in US20040048235A1, “Methods and compositions for the selective modification of nucleic acids” (published 2004).

Sequences of proteins named here, by UniProt entry; tags and fusion partners are left off. Residues count along the entry.
UniProt P02768, 25-609 limits assumed: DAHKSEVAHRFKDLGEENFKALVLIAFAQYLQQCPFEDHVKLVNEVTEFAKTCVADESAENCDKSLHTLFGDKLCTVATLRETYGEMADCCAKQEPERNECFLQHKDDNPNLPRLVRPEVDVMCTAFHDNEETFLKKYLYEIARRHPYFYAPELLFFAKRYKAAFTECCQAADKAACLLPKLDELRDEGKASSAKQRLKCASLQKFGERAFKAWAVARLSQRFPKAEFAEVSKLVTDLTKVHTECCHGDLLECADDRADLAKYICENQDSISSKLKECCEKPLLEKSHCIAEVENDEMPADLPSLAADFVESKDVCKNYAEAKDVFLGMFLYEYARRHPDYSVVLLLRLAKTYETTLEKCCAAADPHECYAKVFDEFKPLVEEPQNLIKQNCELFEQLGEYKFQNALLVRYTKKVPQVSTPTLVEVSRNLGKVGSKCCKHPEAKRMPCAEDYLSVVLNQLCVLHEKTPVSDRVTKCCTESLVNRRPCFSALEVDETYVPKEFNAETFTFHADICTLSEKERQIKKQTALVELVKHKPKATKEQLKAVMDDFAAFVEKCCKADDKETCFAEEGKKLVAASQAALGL

Assays:
[1] = test system: MS2 phage; settings: pH 7.0, 25° C.
[2] = test system: Bacteriophage MS2; test: Phage MS2 infectivity inactivation kinetics; settings: pH 7.5, 0.15 M NaCl, 20° C.
[3] = target: T1, human serum albumin (Homo sapiens, UniProt P02768); test: Protein modification, SDS-PAGE analysis of albumin; settings: 0.9% human serum albumin
[4] = target: T1, human serum albumin; test: Protein modification, isoelectric focusing analysis of albumin; settings: for IEF pattern of albumin: 0.9% human serum albumin
[5] = Potentiometric titration, pKa of protonizable groups; settings: 0.15 M NaCl aqueous solution, 25° C.
[6] = Buffer B: 0.075 M NaCl, 0.2 M MOPS
[7] = Buffer D: 0.075 M NaCl, 0.2 M phosphate
[8] = extent of inactivation 11 log10, monomer 25 mM or trimer 0.4 mM
[9] = extent of inactivation 32 log10, monomer 25 mM
[10] = extent of inactivation 41 log10, monomer 25 mM
[11] = extent of inactivation 83 log10, monomer 25 mM

| Compound | Rate constant [1, 6] [mM ‘hr’] | Rate constant [1, 7] [mM ‘hr’] | Rate constant of phage MS2 infectivity inactivation, reactive form of the agent (k1, in parenthesis) [2] | Rate constant of phage MS2 infectivity inactivation (k) ([2]; total concentration of agent) [M⁻¹ s⁻¹] | SDS-PAGE (reduced and non-reduced) of albumin [3, 8] | SDS-PAGE (reduced and non-reduced) of albumin [3, 9] | SDS-PAGE (reduced and non-reduced) of albumin [3, 10] | SDS-PAGE (reduced and non-reduced) of albumin [3, 11] | IEF pattern of albumin [4, 8] | IEF pattern of albumin [4, 9] | IEF pattern of albumin [4, 10] | IEF pattern of albumin [4, 11] | Effect on albumin charge by isoelectric focusing ([4]; same degree of inactivation, up to 81 orders of magnitude) | Extent of aziridino group protonation (B) (pH 6.5) | Total average positive charge (A) (pH 6.5) | Extent of aziridino group protonation (B) (pH 7.5) | Total average positive charge (A) (pH 7.5) | Extent of aziridino group protonation (B) (pH 8.5) | Total average positive charge (A) (pH 8.5) | pKa aziridino [5] |
| --- | --- | --- | --- | --- | --- | --- | --- | --- | --- | --- | --- | --- | --- | --- | --- | --- | --- | --- | --- | --- |
| β-bromoethyl-diethylenetriamine tribromohydrate | 3.0 ± 0.4 | 0.17 ± 0.02 |  |  |  |  |  |  |  |  |  |  |  |  |  |  |  |  |  |  |
| β-bromoethyl-triethylenetetramine tetrabromohydrate | 6.3 ± 0.9 | 0.29 ± 0.04 |  |  |  |  |  |  |  |  |  |  |  |  |  |  |  |  |  |  |
| C1CN1 |  |  | (1.25) M^−1 · min^−1 | 0.025 ± 0.0012 | No change* | No change* | No change* | No change* | No change* | No change* | No change* | No change* | significant increase in charge heterogeneity | 0.98 | 0.96 | 0.80 | 0.80 | 0.28 | 0.28 | 8.1 |

Where two headings read alike, the source gives them in different places.
